# Measurements from ChEMBL document CHEMBL4376854, “Investigation of the Adrenergic and Opioid Binding Affinities, Metabolic Stability, Plasma Protein Binding Properties, and Functional Effects of Selected Indole-Based Kratom Alkaloids” (J Med Chem, 2020).
# The chains behind the UniProt entries cited, without tags or fusion partners. Where a name states a change or a piece, a line headed by the entry shows the natural chain unless it says otherwise.
# UniProt P41146: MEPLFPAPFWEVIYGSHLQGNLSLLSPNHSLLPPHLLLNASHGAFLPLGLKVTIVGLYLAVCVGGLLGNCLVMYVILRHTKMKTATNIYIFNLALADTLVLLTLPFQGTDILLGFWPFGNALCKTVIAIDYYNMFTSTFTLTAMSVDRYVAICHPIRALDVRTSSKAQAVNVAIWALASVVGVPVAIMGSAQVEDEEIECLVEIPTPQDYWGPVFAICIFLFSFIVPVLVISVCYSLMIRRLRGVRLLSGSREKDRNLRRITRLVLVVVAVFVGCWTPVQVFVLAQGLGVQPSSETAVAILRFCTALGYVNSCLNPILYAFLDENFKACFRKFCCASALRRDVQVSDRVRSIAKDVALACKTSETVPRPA
# Key:
# [1] = biological target: Nociceptin receptor (Homo sapiens) (UniProt P41146); settings: 100 nM
# [2] = biological target: Nociceptin receptor (Homo sapiens) (UniProt P41146); settings: 10000 nM
# Rattus norvegicus = test: Antinociceptive activity in Sprague-Dawley rat dosed intravenously using cumulative dosing every 5 mins until rat maxed-out on hot plate co-treated with 0.1 mg/kg naltrexone by hot plate test; type: functional, organism-based
smiles,measurement,setting,value
CC[C@@H]1CN2CC[C@@]3(O)C(=Nc4cccc(OC)c43)[C@@H]2C[C@@H]1/C(=C\OC)C(=O)OC,inhibition,[1],-1.6%
same,inhibition,[2],3.4%
CN(C(=O)Cc1ccccc1)[C@H]1CC[C@@]2(CCCO2)C[C@@H]1N1CCCC1,Activity,Rattus norvegicus,inactive

# The source made the active and inactive calls. No cut-off for these calls is given here.
